Common to all, as to format: in vivo
In series [1] the test system is SirT1 levels in E4FAD mice. The series can be described thus: Second oral 56-day study, brain SirT1 by AlphaLISA. The settings on record: oral 20 mg/Kg BID, 56 days. On the procedure: E4FAD mice were 10–12 mo and NTg mice 7–9 mo at the start of the study.
Mice were euthanized and blood/tissues collected 2 hrs after dosing on Day 56 by the method described above for PK. Hip and FrCx were collected for analysis of SirT1, sAPPα, and Aβ1-42 levels by AlphaLISA. For Aβ1-42 the Perkin Elmer kit AL276C was used. Protein concentrations were determined using the Bradford protein assay. The sAPPα and sAPPβ AlphaLISAs were similar to the SirT1 AlphaLISA (see Supplementary Fig. S3) but the former uses anti-sAPPα antibody AF1168 and 2B3-biotinylated antibodies and the latter an anti-sAPPβ antibody (IBL Cat. #18957) and an anti-N-terminal APP antibody (R&D Systems AF1168) instead of anti-SirT1 antibodies. Brain tissue and plasma were sent to IAS for A03 level analysis.
For orientation: Alpha assays give light when donor and acceptor beads are brought close together.

The test system of series [2] is SirT1 levels in E4FAD mice. In words: Pilot 28-day SQ efficacy study, brain SirT1 by AlphaLISA. The settings on record: SQ 10 mg/kg/day, 28 days; for SirT1 in frontal cortex (FrCx), all mice / SirT1 in parietal cortex (PtCx): E4FAD mice, vs E4FAD vehicle.
For series [3], the system named is SirT1 levels in E4FAD mice. In words: First oral 25-day study, brain SirT1 by AlphaLISA. The settings on record: oral 20 mg/Kg BID, 25 days, vs vehicle. From the text: Mice were 9–14 (most >11) months of age at the start of the study and n = 12 (5 females/7 males). […] The method for oral delivery was not gavage, but rather oral feeding of a volume of formulation based on the individual weights of the mice to give the specified dose is introduced to the mouse’s mouth using a pipette tip; this method reduces risk of esophageal injury.
Mice were euthanized and blood/tissues collected 2 hrs after dosing on Day 25 by the method described above for PK. FrCx, PtCx, and hippocampi (Hip) were collected from all mice for SirT1 and sAPPα level determination by AlphaLISA. Protein concentration was determined using a Bradford protein assay. Brain and plasma levels of A03 were determined at IAS.

A short description of series [4]: Pharmacokinetics after subcutaneous (SQ) injection in mice. The settings on record: SQ 10 mg/kg, n = 1.

Turning to `CC(N)C(=O)OC(C)(C)Cc1ccc(Cl)cc1` (centres unmarked) [A03, alaproclate], in series [1], the “SirT1 in PtCx” value is “no significant increases”. Also, in series [1] (vs vehicle), the “SirT1 in FrCx” value is “no significant increase” and the “SirT1 in hippocampus (Hip)” value was “significant increase”. Further, in series [2], the “SirT1 in frontal cortex (FrCx), all mice” value is “trend to a significant increase” and the “SirT1 in parietal cortex (PtCx)” value was “no significant increase”. Further, the “SirT1 in frontal cortex (FrCx), males” value in series [2] (male E4FAD mice) is “significant increase”. In addition, in series [3], the “SirT1 in PtCx and FrCx” value is given as “slight increase”; the “SirT1 in hippocampus (Hip)” value is “trend (p = 0.0805) to an increase”.

As for `C[C@H](N)C(=O)OC(C)(C)Cc1ccc(Cl)cc1` [E1], the “Tmax, brain” value in series [4] was “one”. In series [2], the “SirT1 in frontal cortex (FrCx), all mice” value was “did not increase SirT1” and the “SirT1 in parietal cortex (PtCx)” value was “no significant increase”.

Source of the values: paper PMC6279743, “A small molecule ApoE4-targeted therapeutic candidate that normalizes sirtuin 1 levels and improves cognition in an Alzheimer’s disease mouse model” (Scientific Reports, 2018).
